Reference: US20100061982A1, “3-SUBSTITUTED-1H-INDOLE, 3-SUBSTITUTED-1H-PYRROLO[2,3-B]PYRIDINE AND 3-SUBSTITUTED-1H-PYRROLO[3,2-B]PYRIDINE COMPOUNDS, THEIR USE AS MTOR KINASE AND PI3 KINASE INHIBITORS, AND THEIR SYNTHESES” (priority 2008, published 2010)

By UniProt entry, the sequences of proteins in these tests, tags left out.
UniProt P42336, whole entry, species assumed: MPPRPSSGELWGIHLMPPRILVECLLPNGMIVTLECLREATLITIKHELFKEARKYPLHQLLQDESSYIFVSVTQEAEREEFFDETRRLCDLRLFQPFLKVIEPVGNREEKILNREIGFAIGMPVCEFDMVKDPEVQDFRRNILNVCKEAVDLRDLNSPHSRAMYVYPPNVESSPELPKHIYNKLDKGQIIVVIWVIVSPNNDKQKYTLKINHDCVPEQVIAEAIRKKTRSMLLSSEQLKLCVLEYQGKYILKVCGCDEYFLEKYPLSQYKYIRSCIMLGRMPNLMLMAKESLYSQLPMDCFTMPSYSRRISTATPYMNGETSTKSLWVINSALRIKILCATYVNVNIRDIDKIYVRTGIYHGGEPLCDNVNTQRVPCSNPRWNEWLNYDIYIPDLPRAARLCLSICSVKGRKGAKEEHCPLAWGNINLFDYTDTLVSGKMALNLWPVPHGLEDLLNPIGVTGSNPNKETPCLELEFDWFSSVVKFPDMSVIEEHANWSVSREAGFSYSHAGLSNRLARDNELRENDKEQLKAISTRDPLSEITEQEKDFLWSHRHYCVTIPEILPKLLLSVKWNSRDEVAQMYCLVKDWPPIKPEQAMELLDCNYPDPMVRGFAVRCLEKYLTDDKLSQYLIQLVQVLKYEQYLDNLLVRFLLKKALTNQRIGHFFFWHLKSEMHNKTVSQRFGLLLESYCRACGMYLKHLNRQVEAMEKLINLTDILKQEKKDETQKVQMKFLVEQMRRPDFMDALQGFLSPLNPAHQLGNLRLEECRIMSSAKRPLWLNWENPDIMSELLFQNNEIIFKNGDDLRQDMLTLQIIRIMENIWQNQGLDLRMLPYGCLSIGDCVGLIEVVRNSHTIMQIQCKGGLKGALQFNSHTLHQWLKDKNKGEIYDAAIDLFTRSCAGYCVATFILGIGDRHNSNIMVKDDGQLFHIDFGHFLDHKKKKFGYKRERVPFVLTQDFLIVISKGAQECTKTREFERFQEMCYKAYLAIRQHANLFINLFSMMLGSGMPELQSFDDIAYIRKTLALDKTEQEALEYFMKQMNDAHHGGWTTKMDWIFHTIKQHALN

Target: PI3K alpha (Homo sapiens, UniProt P42336)
Test: PI3K-alpha Fluorescence Polarization Assay
Format: biochemical
Description: The reaction buffer was 20 mM HEPES pH7.5, 2 mM MgCl2, 0.05% CHAPS, and 0.01% βME (added fresh). The substrate solution was 40 μM PIP2 (diC8, Echelon, Salt Lake City Utah cat #P-4508, 1 mM in water) and 50 μM ATP in the reaction buffer. Nunc 384-well black polypropylene fluorescent plates were used for PI3K assays. The assay is run by putting 9.5 μl of freshly diluted enzyme in the reaction buffer per well, adding 0.5 μl of diluted drug or DMSO, and mixing. Then 10 μl of the substrate solution is added to each well to start the reaction. A final concentration of 20 μM PIP2 and 25 μM ATP in the reaction was used. Reactions were allowed to proceed for 30-60 minutes at room temperature. After 30-60 minutes, 20 μl of a solution of 10 nM TAMRA detector (Red detector probe-Echelon) and 2.5 μM of GST-murineGRP (1.5 mg/ml in 17% glycerol) was added per well to stop the reaction. The resulting solution was mixed well and allowed to stand for 90-110 minutes before reading plate. Assay Plates were read on Perkin-Elmer Envision plate readers with appropriate filters for Tamra [BODIPY-TMRI(1,3,4,5)P4]. Data obtained were used to calculate enzymatic activity and enzyme inhibition by inhibitor compounds. It is important to keep Red probe solutions dark. This procedure is adapted from Echelon Biosciences Inc procedure for their PI3-Kinase fluorescence polarization activity Assay kit Product number K-1100.

With COc1ccc2[nH]c(-c3ccccc3)c(C=C3Oc4cc(O)cc(O)c4C3=O)c2c1 [4,6-dihydroxy-2-[(5-methoxy-2-phenyl-1H-indol-3-yl)methylene]-1-benzofuran-3(2H)-one] the IC50 was under 3 nM.
